Ab-91 heavy chain CDR variants: yeast mating affinities

Values reported by Engelhart et al. 2022, doi:10.1038/s41597-022-01779-4 (FLAb copy).

Target peptide (SARS-CoV-2 spike, HR2 region): PDVDLGDISGINAS

Ab-91 is the parent antibody, in scFv form: VL, then a (GGGGS)3 linker, then VH. The light chain is unchanged in all variants.
VL: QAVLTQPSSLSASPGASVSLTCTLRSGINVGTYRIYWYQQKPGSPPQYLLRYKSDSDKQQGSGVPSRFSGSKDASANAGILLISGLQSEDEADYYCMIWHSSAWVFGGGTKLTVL
VH: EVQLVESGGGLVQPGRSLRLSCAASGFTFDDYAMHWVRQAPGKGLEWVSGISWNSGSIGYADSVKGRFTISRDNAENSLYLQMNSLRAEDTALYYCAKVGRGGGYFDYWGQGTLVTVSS

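The parent was found by panning a naive human phage display library on the peptide. Variants in AAYL51 differ from the parent at up to three CDR positions; double and triple changes were sampled at random. The assay is AlphaSeq: two haploid yeast populations carry antibody and antigen on their surface. After mating in shaken culture at 30 °C for 16 h, diploids were selected and their barcode pairs sequenced. Scores were corrected for input abundance and mapped to Kd with protein pairs of known affinity run in the same pool. There are three technical replicates.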

Positions count from residue 1 of the parent VH; T28C puts C in place of T. Each Kd is an estimate from the mating assay, the geometric mean of the replicates in which the pair was seen; lower is stronger. Where no diploid with the target was found in any replicate, the entry reads "no signal": below detection, most likely a poor binder, though not proof of it. In this assay the parent's reference entry averaged 72 nM; its copy inside this library read 7.5 nM.

| # | apparent Kd | detected | signal with controls | changes |
|---|---|---|---|---|
| 1 | 150 nM | 3/3 | 1/9 | T28C/V99W/F106L |
| 2 | 35 µM | 1/3 | 3/9 | G26N/S57P/F106C |
| 3 | no signal | 0/3 | 0/9 | S55Y/R101M/F106G |
| 4 | no signal | 0/3 | 1/9 | V99A/G104T/Y108C |
| 5 | 200 µM | 2/3 | 4/9 | D30W/A33Q/G102Y |
| 6 | no signal | 0/3 | 0/9 | S52Y/W53E/S63R |
| 7 | no signal | 0/3 | 2/9 | Y60P/S63K/Y105M |
| 8 | no signal | 0/3 | 2/9 | W53Q/G59W/D107A |
| 9 | 47 µM | 2/3 | 1/9 | A33R/Y60T/Y105C |
| 10 | 450 nM | 3/3 | 2/9 | W53V/D62A |
| 11 | 2.5 µM | 1/3 | 0/9 | I58Y/D62G |
| 12 | no signal | 0/3 | 0/9 | F29W/D30E/D107R |
| 13 | 55 µM | 1/3 | 4/9 | A33I/W53F/G56Y |
| 14 | no signal | 0/3 | 0/9 | D31V/N54R/A61N |
| 15 | no signal | 0/3 | 6/9 | M34W/G50V/G104C |
| 16 | 29 µM | 2/3 | 4/9 | F29Q/I51P |
| 17 | 180 µM | 2/3 | 7/9 | S55V/S57W |
| 18 | 20 nM | 3/3 | 3/9 | G56W/S57Y/D107H |
| 19 | 690 nM | 3/3 | 4/9 | Y32F/S52D/Y108S |
| 20 | no signal | 0/3 | 0/9 | I58K/V99C/G102I |
| 21 | 78 µM | 1/3 | 1/9 | G26F/T28D/V99N |
| 22 | 22 µM | 1/3 | 1/9 | D30K/H35P/Y105T |
| 23 | 5.9 µM | 2/3 | 2/9 | G56H/G100E/R101L |
| 24 | no signal | 0/3 | 2/9 | N54D/I58P/R101M |
| 25 | 13 µM | 1/3 | 0/9 | D31G/Y32W/G102L |
| 26 | 290 µM | 2/3 | 4/9 | G26N/I51N/N54L |
| 27 | no signal | 0/3 | 0/9 | D30K/S55V/G59E |
| 28 | no signal | 0/3 | 0/9 | A33L/R101N/F106W |
| 29 | 32 µM | 1/3 | 0/9 | F29R/G59E/V99L |
| 30 | no signal | 0/3 | 0/9 | W53N/S57H/G59D |
| 31 | 60 µM | 1/3 | 3/9 | G59P/G102T/Y108V |
| 32 | no signal | 0/3 | 0/9 | G50P/I51P/D62Q |
| 33 | 2.4 mM | 1/3 | 1/9 | I51H/G59N/G103C |
| 34 | 65 µM | 1/3 | 0/9 | I51A/K65H/F106T |
| 35 | no signal | 0/3 | 2/9 | D31P/K65D |
| 36 | 1.4 µM | 2/3 | 0/9 | G103E/Y108A |
| 37 | 280 µM | 3/3 | 9/9 | Y32L/R101A |
| 38 | 76 µM | 2/3 | 2/9 | G59K/A61Y/D107V |
| 39 | 190 nM | 3/3 | 3/9 | F29Y/D107F |
| 40 | 11 µM | 1/3 | 2/9 | F27Y/H35Q/D107C |
| 41 | no signal | 0/3 | 1/9 | G50A/G100T/D107N |
| 42 | no signal | 0/3 | 1/9 | F27Q/G50D/G103P |
| 43 | no signal | 0/3 | 0/9 | T28W/H35R/D62P |
| 44 | no signal | 0/3 | 0/9 | Y32C/D62Y/F106R |
| 45 | no signal | 0/3 | 0/9 | S57P/G102K |
| 46 | 910 µM | 1/3 | 1/9 | I51R/S63M |
| 47 | no signal | 0/3 | 2/9 | A33I/I51K/D62I |
| 48 | no signal | 0/3 | 0/9 | I51Q/Y60E/G103H |
| 49 | 75 µM | 2/3 | 6/9 | G26Q/G102P/Y105K |
| 50 | 21 µM | 1/3 | 0/9 | Y60R/G100C/Y108F |
| 51 | no signal | 0/3 | 0/9 | F27T/F29H/D31V |
| 52 | no signal | 0/3 | 1/9 | A33N/G50S/Y108D |
| 53 | 16 nM | 3/3 | 2/9 | A33T/N54E/I58Q |
| 54 | 1.6 mM | 1/3 | 2/9 | M34R/S63R/D107C |
| 55 | 62 µM | 1/3 | 1/9 | Y32I/Y60N/V99L |
| 56 | no signal | 0/3 | 0/9 | A33V/V64R/G103I |
| 57 | 8.0 µM | 1/3 | 6/9 | F29Y/M34F/D107S |
| 58 | no signal | 0/3 | 0/9 | G26L/S52Y/A61Y |
| 59 | no signal | 0/3 | 0/9 | D31N/S55G/G104C |
| 60 | 270 nM | 3/3 | 3/9 | D30A/Y60E/G104P |
| 61 | no signal | 0/3 | 0/9 | A33L/S55I/G103P |
| 62 | no signal | 0/3 | 0/9 | F27S/D30M |
| 63 | 17 µM | 1/3 | 2/9 | S55V/I58T/A61E |
| 64 | 160 µM | 1/3 | 4/9 | H35T/G104Y/D107A |
| 65 | 46 µM | 1/3 | 1/9 | F29Q/D62C/V64T |
| 66 | 510 µM | 1/3 | 3/9 | F27S/H35L/A61L |
| 67 | 94 nM | 3/3 | 7/9 | G26R/D30Q/G104M |
| 68 | no signal | 0/3 | 0/9 | F29Q/D30T/H35M |

The closing 4 entries, repeated:

| changes | apparent Kd | detected | signal with controls |
|---|---|---|---|
| F29Q/D62C/V64T | 46 µM | 1/3 | 1/9 |
| F27S/H35L/A61L | 510 µM | 1/3 | 3/9 |
| G26R/D30Q/G104M | 94 nM | 3/3 | 7/9 |
| F29Q/D30T/H35M | no signal | 0/3 | 0/9 |

As a blank, each scFv also met three strains without target: over library AAYL51, 21% of these pairings were detected, typically at 34 µM and seldom below 1.8 µM. For each scFv, signals with the empty controls are counted beside the result.